Legend:
[1] = Selectivity ratio of IC50 for inhibition of recombinant PDIA6 (unknown origin) to IC50 for inhibition of recombinant PDI (unknown origin)
[2] = Selectivity ratio of IC50 for inhibition of recombinant PDIA3 (unknown origin) to IC50 for inhibition of recombinant PDI (unknown origin)
[3] = system: Platelet; assay: Antiplatelet aggregation activity in human Platelet assessed as inhibition of collagen- induced aggregation preincubated for 3 mins followed by collagen addition by turbidimetric aggregometry; type: functional, cell-based
[4] = system: Platelet; assay: Antiplatelet aggregation activity in human Platelet assessed as inhibition of U46619- induced aggregation preincubated for 3 mins followed by U46619 addition by turbidimetric aggregometry; type: functional, cell-based
[5] = system: Platelet; assay: Antiplatelet aggregation activity in human Platelet assessed as inhibition of thrombin- induced aggregation preincubated for 3 mins followed by thrombin addition by turbidimetric aggregometry; type: functional, cell-based

For `C=C(C(=O)Nc1ccc(C(=O)c2ccccc2)cc1)C(F)(F)F`, the Ratio IC50 [1] was 14.8, the Ratio IC50 [2] was 3.2 and the Activity [3] was “Dose-dependent-effect”. The Activity [4] was “Dose-dependent-effect” and the Activity [5] was “Dose-dependent-effect”.

From ChEMBL document CHEMBL6074718, “Discovery and biological evaluation of potent 2-trifluoromethyl acrylamide warhead-containing inhibitors of protein disulfide isomerase” (Eur J Med Chem, 2025)
